Reference: PubChem BioAssay (NCI)
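These data come from cells grown in 96-well plates and exposed to compound for 48 hours at five concentrations. GI50 = concentration required for 50% inhibition of growth. At the TGI there is no net growth.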

Legend:
Assay in all cases: growth of human tumour cells (NCI), 48 h; in the data active means GI50 below about 0.43 µM; inactive means the rest
OVCAR-5 ovarian = system: OVCAR-5 ovarian
K-562 leukemia = system: K-562 leukemia
NCI/ADR-RES ovarian = system: NCI/ADR-RES ovarian
SK-OV-3 ovarian = system: SK-OV-3 ovarian
MALME-3M melanoma = system: MALME-3M melanoma
EKVX NSCLC = system: EKVX NSCLC
RXF 393 renal = system: RXF 393 renal
NCI-H522 lung = system: NCI-H522 lung
A498 renal = system: A498 renal
SNB-75 CNS = system: SNB-75 CNS
SK-MEL-5 melanoma = system: SK-MEL-5 melanoma
SK-MEL-28 melanoma = system: SK-MEL-28 melanoma
MDA-MB-231 breast = system: MDA-MB-231 breast
786-0 renal = system: 786-0 renal
HS 578T breast = system: HS 578T breast
MOLT-4 leukemia = system: MOLT-4 leukemia
RPMI-8226 leukemia = system: RPMI-8226 leukemia
OVCAR-4 ovarian = system: OVCAR-4 ovarian
SR leukemia = system: SR leukemia
MCF7 breast = system: MCF7 breast
HCT-15 colon = system: HCT-15 colon
HOP-62 NSCLC = system: HOP-62 NSCLC
SN12C renal = system: SN12C renal
SF-268 CNS = system: SF-268 CNS
CCRF-CEM leukemia = system: CCRF-CEM leukemia
MDA-N = system: MDA-N
LOX IMVI melanoma = system: LOX IMVI melanoma
M14 melanoma = system: M14 melanoma
SNB-19 CNS = system: SNB-19 CNS
NCI-H23 lung = system: NCI-H23 lung
PC-3 prostate = system: PC-3 prostate
KM12 colon = system: KM12 colon
UO-31 renal = system: UO-31 renal
MDA-MB-435 = system: MDA-MB-435
TK-10 renal = system: TK-10 renal
OVCAR-8 ovarian = system: OVCAR-8 ovarian
NCI-H460 lung = system: NCI-H460 lung
SK-MEL-2 melanoma = system: SK-MEL-2 melanoma
COLO 205 colon = system: COLO 205 colon
OVCAR-3 ovarian = system: OVCAR-3 ovarian
CAKI-1 renal = system: CAKI-1 renal
UACC-62 melanoma = system: UACC-62 melanoma
ACHN renal = system: ACHN renal
HCT-116 colon = system: HCT-116 colon
UACC-257 melanoma = system: UACC-257 melanoma
SF-295 CNS = system: SF-295 CNS
DU-145 prostate = system: DU-145 prostate
U251 CNS = system: U251 CNS
SW-620 colon = system: SW-620 colon
HT29 colon = system: HT29 colon
BT-549 breast = system: BT-549 breast
HL-60(TB) leukemia = system: HL-60(TB) leukemia
A549 NSCLC = system: A549 NSCLC
HOP-92 NSCLC = system: HOP-92 NSCLC
IGROV1 ovarian = system: IGROV1 ovarian
SF-539 CNS = system: SF-539 CNS
T-47D breast = system: T-47D breast
NCI-H322M lung = system: NCI-H322M lung

Cn1cnc([N+](=O)[O-])c1C[N+](C)(CCCl)CCCl
> 100 µM: TGI (OVCAR-5 ovarian) | TGI (K-562 leukemia) | TGI (NCI/ADR-RES ovarian) | TGI (SK-OV-3 ovarian) | TGI (MALME-3M melanoma) | TGI (EKVX NSCLC) | TGI (RXF 393 renal) | TGI (NCI-H522 lung) | TGI (A498 renal) | TGI (SNB-75 CNS) | TGI (SK-MEL-5 melanoma) | TGI (SK-MEL-28 melanoma) | TGI (MDA-MB-231 breast) | TGI (786-0 renal) | TGI (HS 578T breast) | TGI (MOLT-4 leukemia) | TGI (RPMI-8226 leukemia) | TGI (OVCAR-4 ovarian) | TGI (SR leukemia) | TGI (MCF7 breast) | TGI (HCT-15 colon) | TGI (HOP-62 NSCLC) | TGI (SN12C renal) | TGI (SF-268 CNS) | TGI (CCRF-CEM leukemia) | TGI (MDA-N) | TGI (LOX IMVI melanoma) | TGI (M14 melanoma) | TGI (SNB-19 CNS) | TGI (NCI-H23 lung) | TGI (PC-3 prostate) | TGI (KM12 colon) | TGI (UO-31 renal) | TGI (MDA-MB-435) | TGI (TK-10 renal) | TGI (OVCAR-8 ovarian) | TGI (NCI-H460 lung) | TGI (SK-MEL-2 melanoma) | TGI (COLO 205 colon) | TGI (OVCAR-3 ovarian) | TGI (CAKI-1 renal) | TGI (UACC-62 melanoma) | TGI (ACHN renal) | TGI (HCT-116 colon) | TGI (UACC-257 melanoma) | TGI (SF-295 CNS) | TGI (DU-145 prostate) | TGI (U251 CNS) | TGI (SW-620 colon) | TGI (HT29 colon) | TGI (BT-549 breast) | TGI (HL-60(TB) leukemia) | TGI (A549 NSCLC) | TGI (HOP-92 NSCLC) | TGI (IGROV1 ovarian) | TGI (SF-539 CNS) | TGI (T-47D breast) | TGI (NCI-H322M lung)
inactive: GI50 (OVCAR-5 ovarian) > 100 µM | GI50 (K-562 leukemia) > 100 µM | GI50 (NCI/ADR-RES ovarian) > 100 µM | GI50 (SK-OV-3 ovarian) > 100 µM | GI50 (MALME-3M melanoma) > 100 µM | GI50 (EKVX NSCLC) > 100 µM | GI50 (RXF 393 renal) > 100 µM | GI50 (NCI-H522 lung) > 100 µM | GI50 (A498 renal) > 100 µM | GI50 (SNB-75 CNS) 87.8 µM | GI50 (SK-MEL-5 melanoma) > 100 µM | GI50 (SK-MEL-28 melanoma) > 100 µM | GI50 (MDA-MB-231 breast) > 100 µM | GI50 (786-0 renal) > 100 µM | GI50 (HS 578T breast) > 100 µM | GI50 (MOLT-4 leukemia) > 100 µM | GI50 (RPMI-8226 leukemia) > 100 µM | GI50 (OVCAR-4 ovarian) > 100 µM | GI50 (SR leukemia) 22.6 µM | GI50 (MCF7 breast) > 100 µM | GI50 (HCT-15 colon) > 100 µM | GI50 (HOP-62 NSCLC) > 100 µM | GI50 (SN12C renal) > 100 µM | GI50 (SF-268 CNS) > 100 µM | GI50 (CCRF-CEM leukemia) > 100 µM | GI50 (MDA-N) > 100 µM | GI50 (LOX IMVI melanoma) > 100 µM | GI50 (M14 melanoma) > 100 µM | GI50 (SNB-19 CNS) > 100 µM | GI50 (NCI-H23 lung) > 100 µM | GI50 (PC-3 prostate) > 100 µM | GI50 (KM12 colon) > 100 µM | GI50 (UO-31 renal) > 100 µM | GI50 (MDA-MB-435) > 100 µM | GI50 (TK-10 renal) > 100 µM | GI50 (OVCAR-8 ovarian) > 100 µM | GI50 (NCI-H460 lung) > 100 µM | GI50 (SK-MEL-2 melanoma) > 100 µM | GI50 (COLO 205 colon) > 100 µM | GI50 (OVCAR-3 ovarian) > 100 µM | GI50 (CAKI-1 renal) 34.9 µM | GI50 (UACC-62 melanoma) > 100 µM | GI50 (ACHN renal) 58.1 µM | GI50 (HCT-116 colon) > 100 µM | GI50 (UACC-257 melanoma) > 100 µM | GI50 (SF-295 CNS) > 100 µM | GI50 (DU-145 prostate) > 100 µM | GI50 (U251 CNS) > 100 µM | GI50 (SW-620 colon) > 100 µM | GI50 (HT29 colon) > 100 µM | GI50 (BT-549 breast) > 100 µM | GI50 (HL-60(TB) leukemia) > 100 µM | GI50 (A549 NSCLC) > 100 µM | GI50 (HOP-92 NSCLC) > 100 µM | GI50 (IGROV1 ovarian) > 100 µM | GI50 (SF-539 CNS) > 100 µM | GI50 (T-47D breast) 47.1 µM | GI50 (NCI-H322M lung) > 100 µM
